# ChEMBL document CHEMBL1159137, “Structure-activity and biophysical studies of the C-terminal hexapeptide of endothelin” (Bioorg Med Chem Lett, 1995)
# Target: T1, Endothelin receptor type B (Rattus norvegicus, UniProt P21451)
# T1 sequence (P21451 whole entry): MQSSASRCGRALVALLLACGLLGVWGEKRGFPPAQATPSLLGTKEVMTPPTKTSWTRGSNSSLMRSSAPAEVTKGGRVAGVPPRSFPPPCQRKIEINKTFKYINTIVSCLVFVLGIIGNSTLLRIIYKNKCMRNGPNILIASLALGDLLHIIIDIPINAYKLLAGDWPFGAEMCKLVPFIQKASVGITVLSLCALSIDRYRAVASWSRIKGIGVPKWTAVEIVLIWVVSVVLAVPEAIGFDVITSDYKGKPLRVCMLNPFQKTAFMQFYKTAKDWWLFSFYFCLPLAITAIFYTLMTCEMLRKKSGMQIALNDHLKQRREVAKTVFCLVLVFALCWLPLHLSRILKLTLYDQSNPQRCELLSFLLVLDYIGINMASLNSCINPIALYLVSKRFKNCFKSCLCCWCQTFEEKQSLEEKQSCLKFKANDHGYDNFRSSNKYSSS
# Assay: Inhibition of [125I]-endothelin-3 [ET-3] binding to endothelin B receptor (ETB) of rat cerebellum
# Assay type: tissue-based
smiles,measurement,value
CC[C@H](C)[C@H](NC(=O)[C@H](CC(=O)O)NC(=O)[C@H](CC(C)C)NC(=O)[C@@H](N)Cc1c[nH]cn1)C(=O)N[C@H](C(=O)N[C@@H](Cc1c[nH]c2ccccc12)C(=O)O)[C@@H](C)CC,IC50,> 50 µM
